Compound activity (PubChem)
Rows were chosen to be rich in hits. Some 2.8% of all compounds tested hit in one or more screens of this group.
PglD DTNB: blocks C. jejuni PglD acetyltransferase activity; purified PglD enzyme, DTNB colorimetric CoA detection; inhibition, % at 12.5 µM; 0.098% of 360,000 active; AID 602405; in the data active means inhibition above about 16%, passing the limit was not always enough; inconclusive means no clear call, values can overlap the other calls
Wnt act: activates Wnt/beta-catenin signaling in a reporter cell assay. 1.2% of 300,000 active. AID 743398. activator, plate reader. activation, % at 9.35 µM; in the data active means activation above about 30%, passing the limit was not always enough; inconclusive means no clear call, values can overlap the other calls
esBAF inh: inhibitors of esBAF chromatin remodeling in mouse ES cells; AID 602393; Bmi1-luciferase knock-in reporter, 24 h; 100% = twice the neutral-well signal; 2% of 350,000 active; reporter increase, % at 12.5 µM; in the data active means activation above about 40%; inconclusive means no clear call, values can overlap the other calls;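 further: a rise in the Bmi1 reporter signal indicates esBAF inhibition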
MITF TRPM1 HTS: activators of MITF-driven TRPM1 promoter activity in SK-MEL-5 cells. AID 588334. 0.75% of 300,000 active. activation, % at 12.5 µM. SK-MEL-5 TRPM1-promoter luciferase, 24 h; % of positive control, neutral wells = 0;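 active means mean activation of at least 80% with every replicate also reaching 80%; inconclusive means mean reaches 80% but some replicate falls short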
miR-122 sensor: miR-122 inhibition in Huh7 cells. 0.3% of 340,000 active. activation (reporter increase), % at 12.5 µM. Huh7 miR-122 Renilla luciferase sensor, 48 h; neutral wells = 0, positive control = 100;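 active means mean replicate activation score at least 90 and every replicate individually at or above 90; inconclusive means only one of the two criteria met; inactive means neither criterion met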;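 further: higher luciferase means less miR-122 activity so hits act as miR-122 inhibitors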
UUG fidelity: yeast start codon fidelity modulation | S. cerevisiae UUG-firefly luciferase reporter, luminescence/redox ratio | activity score, % at 18.7 µM | 0.13% of 350,000 active | AID 602363;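 active means replicate mean at a twofold rise or more, about +100% in these data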;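 further: firefly luciferase made from a UUG start codon reports start codon fidelity; reporter light over untreated wells divided by growth signal over untreated wells; some hits fall short of that in this replicate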
PglD confirm: PglD (C. jejuni) inhibition confirmation; AID 743156; Purified C. jejuni PglD, DTNB absorbance 412 nm; inhibition, % at 20 µM; shares compounds with PglD DTNB; 320 tested, under 10 active;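 active means mean inhibition across replicates of at least 20% with every single replicate also at 20% or more; inconclusive means mean inhibition at least 20% but some replicate falls below 20%; inactive means mean inhibition under 20% and not all replicates reach it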;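 further: initial rate of CoA release by acetyl transfer from AcCoA to the UDP-4-amino sugar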
Each line names hits and unclear results; the compound was inactive in the other large screens (follow-up assays come after a bar, where they were run).

COC(=O)c1cc(C)ccc1OCc1ccc([N+](=O)[O-])cc1	PglD DTNB 23 | PglD confirm inactive
CC(C)(C)NC(=O)COC(=O)c1ccccc1Nc1ccc(SC(F)F)cc1	PglD DTNB 20 (no result: Wnt act, esBAF inh) | PglD confirm inconclusive
O=C(Nc1cc(F)ccc1F)N[C@H]1C=C[C@@H](CC(=O)N2CCc3ccccc3C2)O[C@H]1CO	none (no result: Wnt act, MITF TRPM1 HTS)
O=C(NCc1ccco1)Oc1ccccc1	PglD DTNB 21 (no result: Wnt act) | PglD confirm inactive
O=C(NC1CCS(=O)(=O)C1)/C(=C/c1ccc(Cl)cc1)NC(=O)c1ccccc1 (centres undefined)	PglD DTNB 76 | PglD confirm inactive
O=C(NC1CCS(=O)(=O)C1)/C(=C\c1ccccc1)NC(=O)c1ccccc1 (centres undefined)	none (no result: PglD DTNB, esBAF inh, miR-122 sensor, UUG fidelity)
COc1ccc(CN(C)C[C@@H]2Oc3ccc(NC(=O)CCN4CCOCC4)cc3C(=O)N([C@H](C)CO)C[C@@H]2C)cc1	none (no result: Wnt act, MITF TRPM1 HTS)
FC(F)(F)c1ccncc1-c1nnc(C2CCCCC2)o1	PglD DTNB 22 | PglD confirm inactive
C[C@@H]1CN([C@H](C)CO)C(=O)c2cccc(NC(=O)c3ccc(-c4nccs4)cc3)c2O[C@H]1CN(C)S(=O)(=O)c1cn(C)cn1	none (no result: Wnt act, MITF TRPM1 HTS)
Fc1ccc(CNC(=S)NC2CCCCC2)cc1	PglD DTNB 35 (no result: esBAF inh) | PglD confirm inactive
COc1ccccc1/C=C/C(=O)N1CCN(S(=O)(=O)c2cccs2)CC1	PglD DTNB 32 | PglD confirm inactive
O=c1oc2ccccc2cc1-c1ccccc1	PglD DTNB 24 (no result: esBAF inh) | PglD confirm inactive
O=c1oc2ccc(Cl)cc2cc1-c1ccccc1	none (no result: PglD DTNB, esBAF inh, miR-122 sensor, UUG fidelity)
COc1ccc(-c2cc(-c3ccc(OC)cc3)[nH]n2)cc1	PglD DTNB 32, Wnt act 49, esBAF inh 64, MITF TRPM1 HTS inconclusive | PglD confirm inactive
COc1ccc(-c2cc(-c3cc(C)ccc3O)[nH]n2)cc1	none (no result: PglD DTNB, esBAF inh, miR-122 sensor, UUG fidelity)
COc1ccc(CN2[C@@H]3CN(C(=O)CC(F)(F)F)c4ccccc4[C@@H]3[C@@H]2CO)cc1	none (no result: Wnt act, MITF TRPM1 HTS)
C/C(=N/NC(=O)c1cccs1)c1ccc(NC(=O)COc2ccc(Cl)cc2Cl)cc1	PglD DTNB 21 (no result: Wnt act) | PglD confirm inactive
